For series [1], the target named is T1, cMet (Homo sapiens, UniProt P08581).
T1 construct: MKN45 cells expressing c-MET antigens; endogenous in cells; host or cells: MKN45
T1 sequence (P08581 25-1390): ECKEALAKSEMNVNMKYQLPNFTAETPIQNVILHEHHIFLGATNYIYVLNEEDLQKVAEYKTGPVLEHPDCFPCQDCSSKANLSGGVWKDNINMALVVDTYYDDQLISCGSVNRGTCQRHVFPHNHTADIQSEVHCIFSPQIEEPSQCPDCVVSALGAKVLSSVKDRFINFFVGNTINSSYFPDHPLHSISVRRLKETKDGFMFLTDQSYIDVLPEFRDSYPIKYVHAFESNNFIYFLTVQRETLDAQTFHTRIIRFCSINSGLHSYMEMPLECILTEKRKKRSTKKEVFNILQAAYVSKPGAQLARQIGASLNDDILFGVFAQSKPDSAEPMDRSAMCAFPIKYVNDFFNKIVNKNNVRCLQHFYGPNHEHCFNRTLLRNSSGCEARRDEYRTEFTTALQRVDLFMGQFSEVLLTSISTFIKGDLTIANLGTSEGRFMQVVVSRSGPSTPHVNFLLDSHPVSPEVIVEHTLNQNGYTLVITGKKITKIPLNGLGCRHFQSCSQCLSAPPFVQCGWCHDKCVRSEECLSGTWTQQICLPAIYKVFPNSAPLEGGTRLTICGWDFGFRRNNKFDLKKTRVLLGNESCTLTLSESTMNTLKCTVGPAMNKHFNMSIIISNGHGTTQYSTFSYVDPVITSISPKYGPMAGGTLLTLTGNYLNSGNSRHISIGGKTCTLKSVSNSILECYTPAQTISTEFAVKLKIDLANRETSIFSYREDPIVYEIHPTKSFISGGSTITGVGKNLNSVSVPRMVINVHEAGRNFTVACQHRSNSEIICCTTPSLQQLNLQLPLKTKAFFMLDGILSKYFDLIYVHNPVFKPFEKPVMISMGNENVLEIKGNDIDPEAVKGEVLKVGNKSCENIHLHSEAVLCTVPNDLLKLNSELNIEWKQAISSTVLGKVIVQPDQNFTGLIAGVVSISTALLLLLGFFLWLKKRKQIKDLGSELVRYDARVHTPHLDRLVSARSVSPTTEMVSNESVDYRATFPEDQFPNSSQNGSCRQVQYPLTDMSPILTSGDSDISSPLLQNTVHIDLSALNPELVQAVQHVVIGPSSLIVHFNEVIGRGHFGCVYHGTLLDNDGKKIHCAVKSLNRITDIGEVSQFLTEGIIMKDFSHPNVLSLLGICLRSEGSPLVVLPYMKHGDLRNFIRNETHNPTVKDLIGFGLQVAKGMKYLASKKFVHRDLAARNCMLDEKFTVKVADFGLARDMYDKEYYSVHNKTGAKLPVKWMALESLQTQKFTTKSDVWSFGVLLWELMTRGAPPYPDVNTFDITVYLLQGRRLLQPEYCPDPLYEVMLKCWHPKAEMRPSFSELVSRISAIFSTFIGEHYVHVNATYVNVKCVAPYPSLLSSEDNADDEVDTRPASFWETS
Nature of the series: cMet protein degradation in MKN-45 cells (Western blot). The format is cell-based. Particulars: 20 μg/ml, 60 hours, MKN-45, vs isotype control IgG1, FIG. 5. On the technique in general: Immunoblotting shows a protein as a band on a membrane.

The nature of series [2]: HIC hydrophilicity and hydrophobicity detection. The class given is physicochemical. The note with it: retention on hydrophobic chromatographic column.
The target of series [3] is T2, Rat-cMet-hFc (Rattus norvegicus, UniProt P97523).
T2 construct: a rat cMet ectodomain recombinant protein (Rat-cMet-hFc, c-MET Protein, Rat, Recombinant (hFc Tag)); purchased Sino Biological, Inc. 80004-R02H
T2 sequence (P97523 25-935 limits assumed): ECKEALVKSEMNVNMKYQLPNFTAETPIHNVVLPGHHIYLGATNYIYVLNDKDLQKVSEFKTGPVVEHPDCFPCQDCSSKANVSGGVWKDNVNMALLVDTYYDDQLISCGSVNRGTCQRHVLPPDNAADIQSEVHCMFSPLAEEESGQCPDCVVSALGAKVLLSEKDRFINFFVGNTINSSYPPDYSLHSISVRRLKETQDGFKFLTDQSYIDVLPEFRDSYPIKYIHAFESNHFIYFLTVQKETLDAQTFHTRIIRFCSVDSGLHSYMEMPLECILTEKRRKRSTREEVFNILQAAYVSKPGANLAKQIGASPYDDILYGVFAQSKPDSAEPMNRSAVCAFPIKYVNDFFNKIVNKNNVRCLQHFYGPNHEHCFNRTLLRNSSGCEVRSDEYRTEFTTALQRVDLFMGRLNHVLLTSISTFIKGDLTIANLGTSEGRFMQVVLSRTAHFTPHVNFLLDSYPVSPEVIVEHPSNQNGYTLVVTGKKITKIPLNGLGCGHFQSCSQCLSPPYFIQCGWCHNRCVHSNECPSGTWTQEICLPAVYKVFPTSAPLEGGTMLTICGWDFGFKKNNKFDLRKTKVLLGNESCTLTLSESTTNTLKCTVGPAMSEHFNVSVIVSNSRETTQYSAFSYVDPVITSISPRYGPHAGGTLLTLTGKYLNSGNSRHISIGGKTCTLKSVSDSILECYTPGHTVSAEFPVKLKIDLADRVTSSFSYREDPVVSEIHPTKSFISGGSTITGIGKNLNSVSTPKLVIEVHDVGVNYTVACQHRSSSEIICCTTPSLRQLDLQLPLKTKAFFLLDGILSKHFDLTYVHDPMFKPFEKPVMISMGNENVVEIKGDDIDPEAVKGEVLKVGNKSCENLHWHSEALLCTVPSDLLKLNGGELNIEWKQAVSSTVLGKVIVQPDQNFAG
Nature of the series: ELISA cross-detection with rat cMet. The class given is binding. Particulars: FIG. 1. A general note: An ELISA detects its analyte on a solid surface through an enzyme-linked reagent.

Series [4] concerns MKN45 cells. Nature of the series: Flow affinity of humanized antibodies to MKN45 cells. The class given is binding, human. Particulars: flow cytometry. For orientation: Flow cytometry measures light scatter and fluorescence of single cells or particles in a stream.
The nature of series [5]: DSF Tm thermal stability. The format is physicochemical.

B1: 55A10G6-Hz: humanized anti-c-Met antibody, IgG1/Kappa; HC SEQ ID NO: 58, LC SEQ ID NO: 59 (antibody)
heavy: QIQLVQSGAEVKKPGASVKVSCKASGYTFTDYYLNWVRQAPGQGLEWMGWIFPGSGNTKYSQKFQGRVTLTVDTSASTAYMELSSLRSEDTAVYYCAGGDYGGFTYWGQGTLVTVSSASTKGPSVFPLAPSSKSTSGGTAALGCLVKDYFPEPVTVSWNSGALTSGVHTFPAVLQSSGLYSLSSVVTVPSSSLGTQTYICNVNHKPSNTKVDKKV[human IgG1 Fc omitted here]
light: DIQMTQSPSSLSASVGDRVTITCGASENIYGALNWYQQKPGKAPKLLIYGATNLAAGVPSRFSGSGSGRDFTLTISSLQPEDFATYYCQNVLSEPLTFGQGTKVEIKRTVAAPSVFIFPPSDEQLKSGTASVVCLLNNFYPREAKVQWKVDNALQSGNSQESVTEQDSKDSTYSLSSTLTLSKADYEKHKVYACEVTHQGLSSPVTKSFNRGEC
As for B1, the cMet degradation entry in series [1] is “significantly induce cMet degradation”. Moreover, the “HIC” value in series [2] was determined as 15.0 min. Moreover, the “cross with rat cMet (binding)” value in series [3] was “do not bind”. The “MKN45 EC50” value in series [4] is 0.04955 mg/L. Besides, the Maximum signal value in series [4] (MKN45) stood at 78639. Further, the “Tm (° C.)” value in series [5] was 79.62 °C.
